From US4204879A, “Amino acid salts of anionic dyestuffs which have high solubility in organic solvents” (Williams (Hounslow) Limited, priority 1976, dated 1980)

Test: Maximum concentration of dye giving a solution stable for 24 hours at room temperature (Tables 2 and 3)
Format: physicochemical
Experimental: The solubility values given in these Tables are the maximum concentration of dye in grams/liter giving a solution stable for 24 hours at room temperature.

[1] = Table 2, 24 hours, room temperature, salts of 1:2 chromium complex of 2-amino-4-nitrophenol→3-methyl-1-phenyl-5-pyrazolone

Row | Substance | Solubility in Acetone [1] [g.1^-1] | Solubility in Ethanol [1] [g.1^-1] | Solubility in Ethyl Acetate [1] [g.1^-1] | Solubility in Acetone (acetone, 24 h) [g.1^-1] | Solubility in Ethanol (ethanol, 24 h) [g.1^-1] | Solubility in Ethyl Acetate (ethyl acetate, 24 h) [g.1^-1]
1 | N,N-di(2-ethylhexyl)glycine | > 100 | 100 | 50 |  |  | 
2 | N-(iso-tridecyl)glycine | 350 | 350 | 250 |  |  | 
3 | aniline |  | < 5 |  |  |  | 
4 | di-(2-ethylhexyl) amine |  |  |  | > 100 | 20 | < 5
